For 1 compound, IC50 results are on record in US10338078B2, “Method and apparatus for analyzing biomolecules using Raman spectroscopy” (Japan Science and Technology Agency, priority 2012, dated 2019).

This test deals with cathepsin B (Homo sapiens, UniProt P07858). Put plainly: inhibition of cathepsin B enzyme activity. The conditions noted are these: read-out: activity to inhibit cathepsin B, IC50. The text has this: Persons skilled in the art can appropriately select the position to introduce the Raman label as well as the type of Raman label to introduce by considering the structure of the compound. Moreover, persons skilled in the art having general techniques in the field of organic synthesis can appropriately synthesize a Raman-labeled compound as the low-molecular-weight compound according to the present invention. This is explained with a specific example as follows. Persons skilled in the art can synthesize an AOMK derivative (hereinafter, also referred to as RAT8-AOMK) by Raman-labeling acyloxymethyl ketone (AOMK) (an inhibitor of cathepsin B) with alkyne using general techniques in the field of organic synthesis. The RAT8-AOMK binds to cathepsin B, so as to inhibit its enzyme activity. The activity of RAT8-AOMK to inhibit cathepsin B is represented by IC50=0.3 μM. RAT8-AOMK can be synthesized and obtained by reacting N-Boc-AOMK (IC50=0.05 μM) with 4-nitrophenyl-4-ethynylbenzyl carbonate. Acyloxymethyl ketone (AOMK) is known as a cysteine protease inhibitor. The principle thereof is that a cysteine residue of the active center of an enzyme protein is modified by AOMK, and thus activity as protease is diminished (see FIG. 24).

The structures appear in SMILES notation. pIC50: −log10 of the molar value.

For orientation: pIC50 means −log10 of the IC50, conventionally taken in molar units. For the compound `Cc1cccc(C)c1C(=O)OCC(=O)CNC(=O)[C@H](Cc1ccccc1)NC(=O)OC(C)(C)C`, the pIC50 was 7.30.
